Test results as given in patent publication US20210040232A1 (Regeneron, published 2021).

Target: hCTLA-4 extracellular domain (aa 1-161) fused to the trans-membrane and cytoplasmic domain of hCD300a (aa … (human, UniProt Q9UGN4 181-299))
Assay: cell-based or functional assay

B1: H1H19319P2 (antibody, human IgG1, V domains shown)
VH: QVQLVESGGGEVQPGRSLRLSCAASGFTFSSYGMHWVRQAPGKGLEWVAVIWYDGRNKHYVDSVKGRFTISRDNSKNTVYLQMNSLRAEDSAVYYCVRGGQLGAFDYWGQGTLVTVSS
VL: not shown
For B1, the “EC50, T-cell/APC IL-2 release assay, APC HEK293/hCD20/hCD80” value was 15.6 nM.
